According to US8188081B2, “Methods of treating inflammation using prokineticin 1 receptor antagonists” (Janssen Pharmaceutica, NV, priority 2005, dated 2012):

System: rat ileum mucosa

CN1[C@@H]2CC[C@H]1C[C@@H](OC(=O)C(CO)c1ccccc1)C2 (stereo partly shown) [Atropine, reference compound]
block of the pro-secretory effect of PK1: not blocked
